“And” between values parts separate entries of the source, which are not always exact repeats. Identical values can stand only once. The entries are a selection whose mix differs from that of the whole data set. Results filed as inconclusive are left out. The source made the active and inactive calls. Calls follow the shape of the dose curve; as a rule, active = well fitted inhibition curve with a large enough effect; inconclusive = small, poorly fitted or top-dose-only effect, or another doubt; inactive = no such curve, though single readings can be large or run the other way.
% is scaled to controls: 0 for no effect and ±100 for the full control effect.

The chains behind the UniProt entries cited, without tags or fusion partners.
UniProt Q92830, whole entry: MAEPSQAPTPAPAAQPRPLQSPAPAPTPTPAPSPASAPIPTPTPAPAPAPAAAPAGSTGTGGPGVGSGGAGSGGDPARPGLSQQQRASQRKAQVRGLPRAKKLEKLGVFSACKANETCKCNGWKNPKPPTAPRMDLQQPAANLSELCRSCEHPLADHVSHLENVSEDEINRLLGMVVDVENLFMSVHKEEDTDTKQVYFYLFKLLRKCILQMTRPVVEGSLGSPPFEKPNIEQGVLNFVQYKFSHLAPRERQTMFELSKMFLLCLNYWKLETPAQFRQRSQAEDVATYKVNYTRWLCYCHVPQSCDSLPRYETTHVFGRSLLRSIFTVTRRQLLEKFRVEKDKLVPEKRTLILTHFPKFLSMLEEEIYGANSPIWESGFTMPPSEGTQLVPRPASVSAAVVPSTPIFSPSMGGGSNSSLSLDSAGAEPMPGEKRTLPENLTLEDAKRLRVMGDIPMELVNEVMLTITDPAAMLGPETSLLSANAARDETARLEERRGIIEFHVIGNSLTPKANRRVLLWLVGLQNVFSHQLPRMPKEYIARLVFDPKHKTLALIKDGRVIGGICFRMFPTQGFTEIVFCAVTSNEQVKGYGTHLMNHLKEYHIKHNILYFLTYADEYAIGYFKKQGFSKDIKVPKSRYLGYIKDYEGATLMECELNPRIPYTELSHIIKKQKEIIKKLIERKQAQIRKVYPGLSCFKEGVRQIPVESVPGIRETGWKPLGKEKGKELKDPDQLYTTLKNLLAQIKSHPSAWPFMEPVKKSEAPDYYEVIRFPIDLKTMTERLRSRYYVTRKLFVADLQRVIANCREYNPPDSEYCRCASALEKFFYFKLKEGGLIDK

For the assay, the target named is Histone acetyltransferase KAT2A (Homo sapiens) (UniProt Q92830). As to the kind of experiment: qHTS Assay for Inhibitors of GCN5L2. Conditions: GCN5L2 HAT assay, ThioGlo1 CoA-SH fluorescence; at 58.9 µM (top of the series). On the technique in general: In qHTS, concentration-response curves come from the screen itself.
For `CCC(=O)N(c1ccccc1)C1(COC)CCN(CCn2nnn(CC)c2=O)CC1`, the activity change, negative = inhibition was inactive: -1.08%. The figure for `CCC(=O)N(c1ccccc1)C1(COC)CCN(CCc2cccs2)CC1` is inactive: -2.35%; for `CN(CCCl)CCCl` it is inactive: -11.4% and inactive: 4.24%.

(Values after PubChem BioAssay AID504327 (National Center for Advancing Translational Sciences (NCATS), 2011).)
